By UniProt entry, the sequences of proteins in these tests, tags left out. Residues count along the entry.
UniProt Q63118, 24-464: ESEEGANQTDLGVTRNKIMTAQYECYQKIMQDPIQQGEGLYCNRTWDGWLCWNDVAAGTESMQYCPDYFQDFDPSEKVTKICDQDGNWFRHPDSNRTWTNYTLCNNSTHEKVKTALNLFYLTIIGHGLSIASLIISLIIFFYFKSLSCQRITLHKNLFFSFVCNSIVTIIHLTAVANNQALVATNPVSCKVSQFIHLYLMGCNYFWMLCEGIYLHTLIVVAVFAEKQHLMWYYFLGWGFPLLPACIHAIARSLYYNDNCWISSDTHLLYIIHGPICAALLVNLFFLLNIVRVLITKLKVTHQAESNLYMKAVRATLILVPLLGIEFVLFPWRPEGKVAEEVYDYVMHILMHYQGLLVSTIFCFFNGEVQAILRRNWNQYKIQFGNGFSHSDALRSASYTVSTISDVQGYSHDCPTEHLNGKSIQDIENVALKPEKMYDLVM
UniProt Q9JJ74, 27-148: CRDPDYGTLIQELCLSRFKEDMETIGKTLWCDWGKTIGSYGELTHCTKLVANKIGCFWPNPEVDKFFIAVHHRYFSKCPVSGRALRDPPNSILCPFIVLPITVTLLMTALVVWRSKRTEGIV

According to patent US8168592B2 (Amgen Inc., priority 2005, dated 2012):

Target: T1, CGRP1 receptor (Rattus norvegicus, UniProt Q63118+Q9JJ74)
T1 construct: intradermal injection of hCGRP within a small, defined area of abdominal skin produced a 30-40% increase in local blood flow; from tissue; host or cells: living anaesthetised rat, abdominal skin
Assay: laser Doppler blood flowmetry assay (hαCGRP-induced skin blood flow)
Format: in vivo
Details: i.v., pre-treatment 5 minutes, 5 mg/kg
Protocol: Methods. An automated laser Doppler blood flowmetry device is used (MoorLDI®; Moor Instrument, Devon, UK). The device was turned on prior to the start of experiments and allowed to warm up for 20 minutes. Blood flow data (in FLUX) were read from software records (see below).
For each rat, the experimental procedure was performed within a single day and was each rat was sacrificed on the same day immediately after the experiment was over. On an experiment day, each rat was weighed and administered 1 ml/kg (intramuscular injection in right leg) of an anesthetic cocktail consisting of Ketamine, Xylazine and PBS (5:3:2). […] The animal was then ready for the experiment.
Approximately 20 min after the injection of the anesthetic cocktail, baseline blood flow readings were collected for each animal. […]
After completion of baseline scanning, the rat was removed from the device. […] After a pre-determined interval, based on pharmacokinetic characteristics of the relevant CGRP peptide antagonist, agonist (human αCGRP; 0.1 μg, 50 μL; interdermal) was injected such that the point of entry of the needle (30 gauge) was remote from the marker dot but the intradermal injection bolus was centered under the dot. […]
In some cases, plasma IC50 values were calculated by performing least squares linear regression on log plasma concentration values (nM) vs. % change in blood flow values calculated for individual rats.

## CC(=O)N[C@@H](Cc1c[nH]c2ccccc12)C(=O)N[C@H](C(=O)N[C@H](C(=O)N[C@@H](Cc1c[nH]cn1)C(=O)N[C@@H](CCCNC(N)=O)C(=O)N[C@@H](CC(C)C)C(=O)N[C@@H](C)C(=O)NCC(=O)N[C@@H](CC(C)C)C(=O)N[C@@H](CC(C)C)C(=O)N[C@@H](CO)C(=O)N[C@@H](CCCNC(N)=O)C(=O)N[C@@H](CO)C(=O)NCC(=O)NCC(=O)N[C@H](C(=O)N[C@H](C(=O)N[C@@H](CCCNC(=N)N)C(=O)N[C@@H](CCCCN)C(=O)N[C@@H](CC(N)=O)C(=O)N[C@@H](Cc1ccccc1)C(=O)N[C@H](C(=O)N1CCC[C@H]1C(=O)N[C@H](C(=O)N[C@@H](CC(=O)O)C(=O)N[C@H](C(=O)NCC(=O)N1CCC[C@H]1C(=O)N[C@@H](Cc1ccccc1)C(=O)N[C@@H](C)C(=O)N[C@@H](Cc1ccccc1)C(N)=O)C(C)C)[C@@H](C)O)C(C)C)C(C)C)C(C)C)[C@@H](C)O)C(C)C [Compound 31]
  Efficacy observed (%) (at highest dose tested): 100%
